Measured values published in ChEMBL document CHEMBL5390231, “Development of small molecule inhibitors targeting RNA helicase DHX33 as anti-cancer agents” (Bioorg Med Chem Lett, 2023).

Assays:
[1] = biological target: T1, ATP-dependent RNA helicase DHX33 (Mus musculus, UniProt Q80VY9); test: Binding affinity to N-terminal/C-terminal 6x His-tagged recombinant wild type mouse DHX33 transformed in Escherichia coli BL21(DE3)pLysS cells assessed as dissociation constant by ITC analysis
T1 sequence (Q80VY9 whole entry): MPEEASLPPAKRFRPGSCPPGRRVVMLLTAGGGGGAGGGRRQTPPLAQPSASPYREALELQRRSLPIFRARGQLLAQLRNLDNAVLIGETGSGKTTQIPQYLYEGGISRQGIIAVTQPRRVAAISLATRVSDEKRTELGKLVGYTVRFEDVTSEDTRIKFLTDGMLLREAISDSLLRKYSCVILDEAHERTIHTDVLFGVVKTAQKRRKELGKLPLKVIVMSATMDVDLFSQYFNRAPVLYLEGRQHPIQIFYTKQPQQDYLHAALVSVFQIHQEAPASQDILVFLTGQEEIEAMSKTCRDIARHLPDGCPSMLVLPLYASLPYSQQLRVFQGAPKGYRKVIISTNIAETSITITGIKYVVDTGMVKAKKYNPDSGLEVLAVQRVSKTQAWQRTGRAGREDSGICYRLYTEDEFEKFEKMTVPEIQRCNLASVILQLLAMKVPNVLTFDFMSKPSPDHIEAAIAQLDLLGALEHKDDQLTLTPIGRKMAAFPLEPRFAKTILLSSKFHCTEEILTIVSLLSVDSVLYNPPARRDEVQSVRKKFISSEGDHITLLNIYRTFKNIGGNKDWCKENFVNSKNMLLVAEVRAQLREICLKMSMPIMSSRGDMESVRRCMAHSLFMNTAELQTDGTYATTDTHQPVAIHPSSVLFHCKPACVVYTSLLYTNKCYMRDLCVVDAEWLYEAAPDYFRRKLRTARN

[2] = biological target: T2, ATP-dependent RNA helicase DHX33 (Mus musculus) (UniProt Q80VY9)
T2 sequence (whole entry): T1 sequence (Q80VY9 whole entry)

Kd [1]: 4.7 µM | KA [2]: 21.2 10^4/M
SMILES: Cc1oc(-n2c(C)cc(/C=C(\C#N)c3nc4ccccc4[nH]3)c2C)c(C#N)c1C
